## Antibody variant affinities, Ab-95 light chain, assay 2

Values reported by Engelhart et al. 2022, doi:10.1038/s41597-022-01779-4 (FLAb copy).

Antigen: PDVDLGDISGINAS, a 14-residue peptide of the SARS-CoV-2 spike HR2 region.

Parent: Ab-95, a human scFv built as VH, a 15-residue (Gly4Ser)3 linker, VL. Only the CDRs of the light chain vary.
VH: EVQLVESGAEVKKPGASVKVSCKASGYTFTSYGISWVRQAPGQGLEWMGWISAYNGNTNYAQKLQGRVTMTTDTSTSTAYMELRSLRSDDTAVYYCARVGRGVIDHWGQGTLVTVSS
VL: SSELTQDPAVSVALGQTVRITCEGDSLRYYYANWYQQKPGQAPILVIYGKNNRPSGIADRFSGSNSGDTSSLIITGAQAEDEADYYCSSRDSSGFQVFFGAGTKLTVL

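The starting antibody came from a phage panning campaign against this peptide. AAYL52 was designed without a model: most single CDR substitutions and a random sample of double and triple ones. The scFvs were displayed on barcoded MATa yeast, the peptide on MATalpha yeast. The frequency of each diploid, read from paired DNA barcodes, reflects how well the two displayed proteins bind. Scores were corrected for input abundance and mapped to Kd with protein pairs of known affinity run in the same pool. The assay was run in three technical replicates.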

Variants are written as CDR1, CDR2 and CDR3 of the light chain (limits as in the source). Parent: EGDSLRYYYAN, GKNNRPS, SSRDSSGFQVF. Values are log10 of the apparent Kd in nM; lower means stronger binding. The mean shown is taken over the replicates in which the pair was detected. A pair that was not seen in that replicate is written "ND"; this usually means weak binding, but a binder can also be missed. Empty control strains, which show no peptide, gave a signal in 28% of pairings with library AAYL52; the median was 3.91 and 95% of these signals were weaker than 2.90. No background was subtracted. For each scFv, signals with the empty controls are counted beside the result, with their mean in brackets.

| CDR-L1 | CDR-L2 | CDR-L3 | replicates, log10 nM | log10 Kd (nM), mean | control signals |
|---|---|---|---|---|---|
| EGDSYRYYYAN | GKNTRPS | SSRDSDGFQVF | 4.17 3.73 3.32 | 3.74 | 3 of 9 (4.10) |
| EGDSLRYYYAN | IKNNRES | SSRDSSGFEVF | 3.81 3.78 ND | 3.80 | 1 of 9 (3.86) |
| EGDSLRFYYAN | GKNNRPS | SSRDSSYFRVF | 2.73 2.71 2.67 | 2.71 | 2 of 9 (4.32) |
| EGDSLRYYYAN | GKNNRMD | SSRDLSGFQVF | 2.29 2.31 1.97 | 2.19 | 1 of 9 (4.59) |
| EGDSLRQYYAN | GKNNRPS | STQDSSGFQVF | 2.79 2.52 3.68 | 3.00 | 3 of 9 (4.03) |
| EGDSLRRYYAN | GKNNRNS | SSRMSSGFQVF | ND ND ND | ND | 1 of 9 (3.63) |
| EGDSLRYYYAN | GGNNRPS | SSRGSSGDQVF | 2.01 2.23 1.46 | 1.90 | 2 of 9 (3.36) |
| ESDSLRYYYAN | GKNNRPS | SSRDHSGFQVF | 1.91 2.30 1.29 | 1.83 | 2 of 9 (3.05) |
| EGDSLRYYMAN | GKNNRPS | PYRDSSGFQVF | 1.95 1.75 1.29 | 1.67 | 1 of 9 (2.84) |
| DGDSLRYSYAN | GKNNRPS | SSRASSGFQVF | 2.01 1.82 1.55 | 1.80 | 2 of 9 (3.96) |
| EGDFLRTYKAN | GKNNRPS | SSRDSSGFQVF | 2.24 2.38 2.13 | 2.25 | 5 of 9 (3.88) |
| EGDELRYYYAN | GKNNRPS | SSRDSSGFNNF | 3.46 3.55 4.15 | 3.72 | 4 of 9 (3.46) |
| EGDSLRYYYAN | WKNERPS | SSRDGSGFQVF | ND ND ND | ND | 1 of 9 (4.98) |
| EGDSRRYYYAN | GWNNRPS | SSRDSSGFQSF | ND 4.40 ND | 4.40 | 0 of 9 |
| EGDNLRYYYAN | GKNNRPS | FSPDSSGFQVF | 4.09 3.34 ND | 3.72 | 1 of 9 (4.11) |
| EGDSLRYVYWN | GKNNRPS | WSRDSSGFQVF | ND ND ND | ND | 3 of 9 (3.97) |
| EGDSLMYYYAN | GKNDRPS | SSRDSSGFQEF | 2.05 2.48 1.81 | 2.11 | 2 of 9 (3.50) |
| EGDSVRYYYAN | GKNNRPS | SSRDMSGFYVF | ND 4.69 ND | 4.69 | 2 of 9 (4.04) |
| EVDSSRYYYAN | GKNNRPS | SSRMSSGFQVF | 4.06 ND 3.19 | 3.63 | 3 of 9 (4.15) |
| EGDSLRYYYAN | GKNNRPS | SSVDSSGCCVF | 3.72 ND ND | 3.72 | 2 of 9 (3.74) |
| EMDSLRGYYAN | GKNNRPS | SSRDLSGFQVF | 2.69 2.46 2.19 | 2.45 | 6 of 9 (3.65) |
| DGDSLRYYYAN | GKNNAPS | SSRDSNGFQVF | 3.40 3.29 ND | 3.34 | 2 of 9 (3.35) |
| EGDSLRYYYAN | GKNNRPS | SSRNSSGFQYC | 2.54 2.63 1.69 | 2.29 | 2 of 9 (2.68) |
| EGDSLRYWYWN | GKNNRPS | SSRDSSGTQVF | 2.40 2.35 2.59 | 2.45 | 4 of 9 (3.94) |
| EGDSLYYYYAN | GKNNRPS | SSRISMGFQVF | ND ND ND | ND | 4 of 9 (4.27) |
| LGDSLRYYYAN | GKNNMPS | SSRDSWGFQVF | 4.72 5.91 4.69 | 5.11 | 3 of 9 (3.82) |
| EGDSLRYYYAN | GFLNRPS | DSRDSSGFQVF | ND ND ND | ND | 1 of 9 (3.46) |
| EGDSLHYYYAN | GKNNRPS | SSRVSSTFQVF | 3.03 2.50 2.56 | 2.69 | 1 of 9 (4.51) |
| EGDSLRYYYAN | GKNMRKS | SSRDSSGFQRF | 3.46 5.22 3.20 | 3.96 | 3 of 9 (4.25) |
| DGDSLRYYYAR | GKWNRPS | SSRDSSGFQVF | ND ND ND | ND | 0 of 9 |
| EGDSLRYYTAN | GKNNRPS | SSSDSDGFQVF | ND 4.57 ND | 4.57 | 5 of 9 (3.83) |
| EADSLRYEYAN | GKNNAPS | SSRDSSGFQVF | 2.77 3.26 2.75 | 2.93 | 3 of 9 (3.58) |
| EGDSLRSMYAG | GKNNRPS | SSRDSSGFQVF | 4.37 3.88 3.97 | 4.07 | 2 of 9 (5.01) |
| EGDSLRYYDNN | GKNNRPS | SSRDSSGFCVF | 3.91 4.06 3.41 | 3.79 | 2 of 9 (3.37) |
| EGDSLRYYYAN | GFNNRPT | SSRDSSGFQPF | ND 3.04 4.35 | 3.70 | 1 of 9 (4.49) |
| QKDSLRYYYAN | GPNNRPS | SSRDSSGFQVF | 2.83 3.35 2.66 | 2.95 | 3 of 9 (4.01) |
| EGDFLRYTYAN | GKPNRPS | SSRDSSGFQVF | 4.08 4.55 3.51 | 4.05 | 1 of 9 (3.97) |
| EGDSLRYYYAN | GKNTRPW | SSRDSSGFQMF | ND 4.63 ND | 4.63 | 3 of 9 (3.58) |
| EDDSLWYYYAN | GKNNRPS | SSRDSSGSQVF | ND ND 4.19 | 4.19 | 0 of 9 |
| EGDSLRYYYAN | AKNNRPR | CSRDSSGFQVF | 4.43 ND ND | 4.43 | 3 of 9 (3.95) |
| EGDSLRYYYAN | GKNNFPS | SSRDNSGFHVF | ND ND ND | ND | 2 of 9 (3.95) |
| EGDSLRYYYAN | GKNNRTS | SSSDSSGFQYF | 2.72 2.59 3.68 | 3.00 | 1 of 9 (4.76) |
| ENDSLRYYYAN | GKNNRPS | SSRCSSGFQVF | ND 4.78 ND | 4.78 | 4 of 9 (4.06) |
| EGDSLRYYYAN | GKNFRCS | ESRDSSGFQVF | 4.54 ND ND | 4.54 | 3 of 9 (3.83) |
| EGDSGRVYYAN | GKNNRPA | SSRDSSGFQVF | 4.61 ND 4.19 | 4.40 | 3 of 9 (4.55) |
| EGDCFRKYYAN | GKNNRPS | SSRDSSGFQVF | 2.54 3.11 4.30 | 3.32 | 4 of 9 (3.97) |
| ECDSLRYYYIN | GKNYRPS | SSRDSSGFQVF | 2.64 3.22 2.20 | 2.69 | 4 of 9 (4.41) |
| EGNSGRYYYAN | GKNNRPS | SSRDSSGFTVF | 4.05 ND ND | 4.05 | 1 of 9 (4.10) |

The closing 3 entries, repeated:

| CDR-L1 | CDR-L2 | CDR-L3 | replicates, log10 nM | log10 Kd (nM), mean | control signals |
|---|---|---|---|---|---|
| EGDCFRKYYAN | GKNNRPS | SSRDSSGFQVF | 2.54 3.11 4.30 | 3.32 | 4 of 9 (3.97) |
| ECDSLRYYYIN | GKNYRPS | SSRDSSGFQVF | 2.64 3.22 2.20 | 2.69 | 4 of 9 (4.41) |
| EGNSGRYYYAN | GKNNRPS | SSRDSSGFTVF | 4.05 ND ND | 4.05 | 1 of 9 (4.10) |